# Biological target: human IKK-2 (rhIKK-2 homodimer) (Homo sapiens, UniProt O14920)
# By UniProt entry, the sequences of proteins in these tests, tags left out.
# UniProt O14920, whole entry: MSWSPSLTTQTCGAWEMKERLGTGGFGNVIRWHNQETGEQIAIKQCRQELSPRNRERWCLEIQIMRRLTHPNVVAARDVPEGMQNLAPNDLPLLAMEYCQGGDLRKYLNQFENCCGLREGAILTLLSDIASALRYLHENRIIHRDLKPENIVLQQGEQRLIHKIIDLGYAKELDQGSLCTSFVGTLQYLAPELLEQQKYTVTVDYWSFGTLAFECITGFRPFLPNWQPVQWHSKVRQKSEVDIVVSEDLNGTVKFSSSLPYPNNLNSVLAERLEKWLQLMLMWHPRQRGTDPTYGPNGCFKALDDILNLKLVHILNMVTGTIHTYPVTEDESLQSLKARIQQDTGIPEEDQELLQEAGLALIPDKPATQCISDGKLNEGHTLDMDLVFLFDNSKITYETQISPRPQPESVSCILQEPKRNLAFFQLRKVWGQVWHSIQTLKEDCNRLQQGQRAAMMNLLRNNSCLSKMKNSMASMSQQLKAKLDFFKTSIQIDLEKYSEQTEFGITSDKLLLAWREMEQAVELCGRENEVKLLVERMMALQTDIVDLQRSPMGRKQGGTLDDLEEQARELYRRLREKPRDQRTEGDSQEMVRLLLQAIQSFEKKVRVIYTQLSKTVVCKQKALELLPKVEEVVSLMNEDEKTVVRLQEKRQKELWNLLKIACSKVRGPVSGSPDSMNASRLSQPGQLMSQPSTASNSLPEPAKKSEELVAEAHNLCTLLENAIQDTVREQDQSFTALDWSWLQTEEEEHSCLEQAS
# Experiment: IKK-2 Resin Enzyme Assay (Human IKK-2 Enzyme Assay)
# Assay type: biochemical
# Conditions: read-out: IC50 (μM) hIKK-2; human IKK-2, resin enzyme assay
# Excerpt: Materials: SAM^2™96 Biotin capture plates were from Promega. Anti-FLAG affinity resin, FLAG-peptide, NP-40 (Nonidet P-40), BSA, ATP, ADP, AMP, LPS (E. coli serotype 0111:B4), and dithiothreitol were obtained from Sigma Chemicals. Antibodies specific for NEMO (IKK-γ) (FL-419), IKK-1 (H-744), IKK-2(H-470) and IκBa(C-21) were purchased from Santa Cruz Biotechnology. Ni-NTA resin was purchased from Qiagen. Peptides were purchased from American Peptide Company. Protease inhibitor cocktail tablets were from Boehringer Mannheim. Sephacryl S-300 column was from Pharmacia LKB Biotechnology. Centriprep-10 concentrators with a molecular weight cutoff of 10 kDa and membranes with molecular weight cut-off of 30 kDa were obtained from Amicon. [γ-^33P] ATP (2500 Ci/mmol) and [γ-^32P] ATP (6000 Ci/mmol) were purchased from Amersham. The other reagents used were of the highest grade commercially available.
# Cloning and Expression: cDNAs of human IKK-1 and IKK-2 were amplified by reverse transcriptase-polymerase chain reaction from human placental RNA (Clonetech). hlKK-1 was subcloned into pFastBac HTa (Life Technologies) and expressed as N-terminal His6-tagged fusion protein. The hlKK-2 cDNA was amplified using a reverse oligonucleotide primer which incorporated the peptide sequence for a FLAG-epitope tag at the C-terminus of the IKK-2 coding region (DYKDDDDKD). The hlKK-2:FLAG cDNA was subcloned into the baculovirus vector pFastBac. The rhIKK-2 ([…]) mutant was constructed in the same vector used for wild type rhIKK-2 using a QuikChange™ mutagenesis kit (Stratagene). Viral stocks of each construct were used to infect insect cells grown in 40 L suspension culture. […] Cell lysates were stored at −80° C. until purification of the recombinant proteins was undertaken as described below.
# Enzyme Isolation: All purification procedures were carried out at 4° C. unless otherwise noted. Buffers used are: buffer A: 20 mM Tris-HCl, pH 7.6, containing 50 mM NaCl, 20 mM NaF, 20 mM β-Glycerophosphate, 500 μM sodium orthovanadate, 2.5 mM metabisulfite, 5 mM benzamidine, 1 mM EDTA, 0.5 mM EGTA, 10% glycerol, 1 mM DTT, 1× Complete™ protease inhibitors; buffer B: same as buffer A, except 150 mM NaCl, and buffer C: same as buffer A, except 500 mM NaCl.
# Isolation of rhIKK-2 homodimer: A 10-liter culture of baculovirus-expressing IKK-2 tagged with FLAG peptide was centrifuged and the cell pellet (MOI=0.1 and 1=72 h) was re-suspended in buffer A. These cells were microfluidized, and centrifuged at 100,000×g for 45 min. Supernatant was passed over a G-25 column equilibrated with Buffer A. Protein peak was collected and incubated with anti-FLAG affinity resin on a rotator overnight in buffer B. The resin was washed in batch with 10-15 bed volumes of buffer C. Washed resin was poured into a column and rhIKK-2 homodimer was eluted using 5 bed volumes of buffer B containing FLAG peptide. 5 mM DTT, 0.1% NP-40 and BSA (concentrated to 0.1% in final amount) was added to the eluted enzyme before concentrating in using an Amicon membrane with a molecular weight cut-off of 30 kDa. Enzyme was aliquoted and stored at −80° C.
# IKK-2 Resin Enzyme Assay: IKK-2 kinase activity was measured using a biotinylated IκBα peptide (Gly-Leu-Lys-Lys-Glu-Arg-Leu-Leu-Asp-Asp-Arg-His-Asp-Ser32-Gly-Leu-Asp-Ser36-Met-Lys-Asp-Glu-Glu) (American Peptide Co.). 20 μL of the standard reaction mixture contained 5 μM biotinylated IκBα peptide, 0.1 μCi/reaction [γ-^33P] ATP (Amersham) (about 1×10^5 cpm), 1 μM ATP (Sigma), 1 mM DTT (Sigma), 2 mM MgCl2 (Sigma), 2 mM MnCl2 (Sigma), 10 mM NaF (Sigma), 25 mM Hepes (Sigma) buffer, pH 7.6 and 20 μL enzyme solution and 10 μL inhibitor in a final volume of 50 μL. After incubation at 25° C. for 30 min, 150 μL resin (Dowex anion-exchange resin AG1X8 200-400 mesh) in 900 mM formate, pH 3.0 was added to each well to stop the reaction. Resin was allowed to settle for 1 h and 50 μL of supernatant was removed to a Micolite-2 flat bottom plate (Dynex). […]
row,SMILES,IC50 [µM]
1,Cc1cc(F)ccc1-c1ccc(-n2cc(NC(N)=O)c(C(N)=O)n2)cc1,0.947
2,NC(=O)Nc1cn(-c2ccc3[nH]ccc3c2)nc1C(N)=O,0.383
3,N#CCOc1ccc(-c2cccc(-n3cc(NC(N)=O)c(C(N)=O)n3)c2)cc1,1.02
4,COc1ccccc1-c1ccc(-n2cc(NC(N)=O)c(C(N)=O)n2)cc1,1.06
5,CNC(=O)Nc1cn(-c2ccc(-c3ccc(C(N)=O)cc3)cc2)nc1C(N)=O,2.68
6,COc1ccc(-c2ccc(-n3cc(NC(N)=O)c(C(N)=O)n3)cc2)cc1F,6.99
7,NC(=O)Nc1cn(-c2ccc(-c3cccc4ccccc34)cc2)nc1C(N)=O,7.41
8,NC(=O)Nc1cn(-c2ccc(-c3cc(F)cc(F)c3)cc2)nc1C(N)=O,5.81
9,NC(=O)Nc1cn(-c2ccc(-c3ccccc3Cl)cc2)nc1C(N)=O,0.743
10,N#CCOc1cccc(-c2cccc(-n3cc(NC(N)=O)c(C(N)=O)n3)c2)c1,1.99
11,COc1ccc(F)cc1-c1ccc(-n2cc(NC(N)=O)c(C(N)=O)n2)cc1,0.385
12,NC(=O)Nc1cn(-c2ccc(-c3ccc(F)c(Cl)c3)cc2)nc1C(N)=O,3.95
13,NC(=O)Nc1cn(-c2ccc(-c3cccc(Cl)c3)cc2)nc1C(N)=O,4.38
14,NC(=O)Nc1cn(-c2cccc(-c3cccc(F)c3)c2)nc1C(N)=O,7.59
15,NC(=O)Nc1cn(-c2ccc(-c3cccc(-c4ccccc4)c3)cc2)nc1C(N)=O,7.82

# Reference: patent US20050197338A1, “Substituted pyrazole urea compounds for the treatment of inflammation” (priority 2003, published 2005)
